Experimental data published in patent publication US20210260064A1, “POZIOTINIB COMBINATIONS WITH AN ANTI-HER1, HER2 OR HER4 ANTIBODY AND METHODS OF USE THEREOF” (Spectrum Pharmaceuticals, Inc., priority 2018, published 2021).

Assays:
[1] = tested on: NSCLC patients having EGFR activating mutations; details: in vivo; cited from earlier work
[2] = tested on: patients with HER2-poisitive GC resistant to trastuzumab; details: phase I; cited from earlier work
HER2-positive GC cells = details: cited from earlier work
BT-474 cells = experiment: Combination of poziotinib with other anticancer drugs, synergy on proliferation; type: cell-based; details: HER2-overexpressed, ER-negative breast cancer cells
MBA-MB-453 cells = experiment: as above; type: cell-based; details: HER2 overexpressed trastuzumab resistant breast cancer cells; concentrations equal to or lower than the GI50 of poziotinib alone
N-87 cells = experiment: Combination of poziotinib with other anticancer drugs, synergy; type: cell-based; details: HER2-overexpressed gastric cancer cell line
HER2-positive GC = details: cited from earlier work

COc1cc2ncnc(Nc3ccc(F)c(Cl)c3)c2cc1OCCCN1CCOCC1 [gefitinib]
Patients observed to be resistant due to the EGFR T790M mutation [1]: about 60%

DS8201a
DCR [2]: 78% | ORR [2]: 44% | anti-tumor activity (HER2-positive GC cells): potent anti-tumor'activity

trastuzumab: humanized anti-HER2 IgG1 monoclonal antibody
synergistic effect when combined with poziotinib (BT-474 cells): weak synergistic effect | synergistic effect when combined with poziotinib (MBA-MB-453 cells): excellent synergistic effect | synergistic effect when combined with poziotinib (N-87 cells): synergistic effect was observed at some concentrations | Effect of trastuzumab beyond progression on PFS and ORR (HER2-positive GC; prospective phase II study, second-line): failed to improve PFS and the ORR | Effect of trastuzumab beyond progression on PFS and OS (HER2-positive GC; retrospective study): increased PFS and OS
